The text below walks through data of ChEMBL document CHEMBL1955715 (Bioorg Med Chem Lett, 2012).

Chains of the proteins cited; added tags and fusions are not shown.
UniProt Q63380, whole entry: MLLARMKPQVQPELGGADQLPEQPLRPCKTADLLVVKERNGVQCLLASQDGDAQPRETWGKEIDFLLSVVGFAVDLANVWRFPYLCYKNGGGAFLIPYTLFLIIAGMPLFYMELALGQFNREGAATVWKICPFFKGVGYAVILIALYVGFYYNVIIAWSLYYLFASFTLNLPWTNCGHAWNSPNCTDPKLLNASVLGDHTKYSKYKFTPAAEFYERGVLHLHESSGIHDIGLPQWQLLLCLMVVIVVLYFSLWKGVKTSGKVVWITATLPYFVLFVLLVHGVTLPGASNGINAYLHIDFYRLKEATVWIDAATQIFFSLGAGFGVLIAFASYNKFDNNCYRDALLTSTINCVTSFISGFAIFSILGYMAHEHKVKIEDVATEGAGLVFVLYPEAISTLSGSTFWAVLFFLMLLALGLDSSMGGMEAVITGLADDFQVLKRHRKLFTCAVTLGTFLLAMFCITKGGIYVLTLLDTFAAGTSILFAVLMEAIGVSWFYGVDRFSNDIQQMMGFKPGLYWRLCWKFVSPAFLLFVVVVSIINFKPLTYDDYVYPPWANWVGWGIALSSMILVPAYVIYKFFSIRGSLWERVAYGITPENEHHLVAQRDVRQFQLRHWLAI

The target of the test is Transporter (Rattus norvegicus, UniProt Q63380). Briefly: Inhibition of rat NET-mediated norepinephrine reuptake.

Turning to `NC(=O)C[S+]([O-])C(c1ccccc1)c1ccccc1` (stereo unspecified) [MODAFINIL], the IC50 is 63.9 µM.

By IC50 is commonly meant the concentration that inhibits the measured activity by half. Low values mean higher potency, high ones lower potency.
